Our source for the binding to cells and cell viability values is patent US10588982B2, “Site-specific covalent chemical ligation to monoclonal and polyclonal immunoglobulin” (The Regents of the University of California, priority 2015, dated 2020).

The subject of one assay is SKBR-3 cells. In words: Flow cytometry bispecific binding (SAPE). It is filed as cell-based, human. The conditions noted are these: 750 μM (LLP2A 250 μM), 1 hr. As to the method: (§1) FIG. 11. Bispecific binding abilities for both Her2 and α4β1 integrin are shown. Biotinylated DS peptide was conjugated to trastuzumab creating trast-DS. Trast-DS was dialyzed and crosslinked at pH 8.5. 3:1 ratio of trast-DS to biotinylated LLP2A was bound to streptavidin-PE (SAPE). Controls (trast-DS only and LLP2A only) were conjugated to SAPE at a 4:1 molar ratio. 750 μM trast-DS, 750 μM trast-DS: LLP2A, 250 μM LLP2a were incubated with SKBR-3 human mammary gland/breast adenocarcinoma (A) and Jurkat human T lymphocyte (B) cells for 1 hour. Cells were run through flow cytometry to quantify cells.
(§2) 3×10^4 cells (SKBR-3 and Jurkat) were plated in a 48 well plate. Trastuzumab-peptide crosslinker was prepared as previously mentioned. Trastuzumab-peptide conjugate and/or biotinylated. LLP2A were then conjugated to SAPE at 4:1 molar ratio. The bispecific samples were conjugated at 3:1:1 molar ratio (trastuzumab-peptide:LLP2A:SAPE). Cells were dosed with (1) 750 nM Trastuzumab-peptide, (2) 250 nM LLP2A, or (3) 750 nM Trastuzumab-peptide/LLP2A conjugate for 1 hr. SKBR-3 cells were trypsinized; Jurkat cells were removed. All cells were washed with cold PBS and resuspended in PBS for flow cytometry analysis using the FACScan system (Becton Dickinson, San Jose, Calif.). […]
A general note: In flow cytometry, cells or beads pass a laser one at a time.

For another assay, the system named is Jurkat cells. In words: Flow cytometry bispecific binding (SAPE). The note with it: 750 μM (LLP2A 250 μM), 1 hr. Type of assay: cell-based, human. As to the method: as §1, §2
In assay [1] the test system is MDA-MB-468 cells. In words: Flow cytometry antigen binding. Type of assay: cell-based. The conditions noted are these: 40 ng/ml, Cy3-labeled anti-human IgG Fc secondary antibody. As to the method: (§3) 10×10^5 cells (SKBR-3, MCF7, and MDA-MB-468) were plated. Trastuzumab-peptide crosslinker was prepared as previously mentioned. Trastuzumab-peptide conjugate and/or biotinylated MMAE were then conjugated to avidin at 1:3, 2:2, and 3:1 molar ratio. Cells were dosed with 40 ng/mL modified or naked antibodies for 2 hours at 37° C. Cells were trypsinized, washed with PBS, and incubated with anti-human IgG Fe Cy3 secondary antibody (Thermo, Waltham, Mass.) for 1 hour on ice in the dark. Cells were then washed with cold PBS and resuspended for flow cytometry analysis using a FACScan system (Becton Dickinson, San Jose, Calif.).
(§4) The site-specific ligation of a nucleotide binding pocket ligand targeting moiety in combination with a peptide affinity element containing linker and a cross-linking agent has broad utility. For example, cytotoxins can be easily conjugated to the C-terminus of the peptide affinity element, e.g., directly or through one or more ethylene glycol linker moieties, for the production of ADCs. As another example, ligands can be easily conjugated to the C-terminus of the peptide affinity element, e.g., directly or through one or more ethylene glycol linker moieties, to create bispecific antibodies. […] Conjugation of a compound to the NBP which has close proximity of to the antigen binding site is a cause of concern. This proximity has the potential to affect the antigen binding ability. We tested the Trast-DS conjugate for binding to SKBR3, MCF7, and MDA-MB-468 cells. […] (FIG. 9a-c). […] TrastDS-MMAE, an immunotoxin generated through our conjugation method also retained the antigen binding ability (FIG. 9d-f).

The test system of assay [2] is MCF7 cells. In words: Flow cytometry antigen binding. The conditions noted are these: 40 ng/ml, Cy3-labeled anti-human IgG Fc secondary antibody. Type of assay: cell-based. The protocol:
as §3, §4

Assay [3] has as its system SKBR3 cells. In words: Flow cytometry antigen binding. The note with it: 40 ng/ml, Cy3-labeled anti-human IgG Fc secondary antibody. It is filed as cell-based. The protocol: as §3, §4
For assay [4], the system named is SKBR3 cells. In words: Cell viability with TrastDS-MMAE conjugates. It is filed as cell-based, human. The note with it: high Her2 expression.
Assay [5] deals with MCF7 cells. In words: Cell viability with TrastDS-MMAE conjugates. It is filed as cell-based, human. The conditions noted are these: moderate Her2 expression.
Assay [6] concerns MDA-MB-468 cells. In words: Cell viability with TrastDS-MMAE conjugates. Type of assay: cell-based, human. The note with it: no Her2 expression.
Where [7] appears, read: listed as TrastDS conjugated with MMAE.

As for TrastDS/LLP2A, the binding to cells entry was “No loss of affinity” in the assay with SKBR-3 cells and “some binding affinity was lost” in the assay on Jurkat cells.
“Trastuzumab: model monoclonal antibody, anti-Her2 [reference compound]”: in the assay with MDA-MB-468 cells [1], the binding to cells entry is given as “No binding”.
Take TrastDS-MMAE: the binding to cells entry is given as “did not affect binding affinity” in the assay with MCF7 cells [2], “did not affect binding affinity” with SKBR3 cells [3] and “No binding” in the assay on MDA-MB-468 cells [1]. The cell viability entry with SKBR3 cells [4] is given as “decreased cell viability in a dose dependent manner”; in the assay with SKBR3 cells [4] (setting [7]) it was “decreased in cell viability”; in the assay on MCF7 cells [5], “decreased cell viability in a dose dependent manner”; in the assay with MCF7 cells [5] (setting [7]), “decreased in cell viability”; in the assay with MDA-MB-468 cells [6], “not significantly affected”; in the assay on MDA-MB-468 cells [6] (setting [7]), “not as pronounced”.
